Binding of CDR-mutated scFvs to a peptide of the spike HR2 region

Target peptide (SARS-CoV-2 spike, HR2 region): PDVDLGDISGINAS

Ab-14 is the parent antibody, in scFv form: VH, then a (GGGGS)3 linker, then VL. The light chain is unchanged in all variants.
VH: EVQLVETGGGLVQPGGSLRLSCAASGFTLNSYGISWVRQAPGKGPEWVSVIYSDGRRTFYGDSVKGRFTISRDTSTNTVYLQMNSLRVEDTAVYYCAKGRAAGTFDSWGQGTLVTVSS
VL: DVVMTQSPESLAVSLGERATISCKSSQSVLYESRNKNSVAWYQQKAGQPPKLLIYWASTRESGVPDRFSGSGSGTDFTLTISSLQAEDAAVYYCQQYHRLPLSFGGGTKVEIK

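Phage display of a naive human antibody library on the peptide gave the parent. These sequences belong to a second round, designed from the earlier measurements on random variants of the parent. Their group label is 14H_GP_Gibbs (GP: Gaussian process model; Gibbs: Gibbs sampling; a sequence that several methods proposed may carry one label only). The scFvs were displayed on barcoded MATa yeast, the peptide on MATalpha yeast. The frequency of each diploid, read from paired DNA barcodes, reflects how well the two displayed proteins bind. Each replicate has its own calibration line, from reference interactions of the BCL2 family. There are six technical replicates.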

The parent's heavy chain CDRs are GFTLNSYGIS, VIYSDGRRTFYGDSVK, GRAAGTFDS; each variant's own CDRs replace them letter for letter.
Affinities are written as log10 Kd with Kd in nM; a lower number is a better binder.
Averages over replicates are reported, and they cover detected replicates only.
A pair that was not seen in that replicate is written "nd"; this usually means weak binding, but a binder can also be missed.
The parent sequence was in this pool as ten entries: three were never detected, three once, and four in most replicates, with averages from 0.34 to 2.37.
In the paper, a design with two or fewer of six values counts as a poor binder.
A sequence measured in both rounds can read differently, since the two assays cover different ranges.
As a blank, each scFv also met three strains without target: over all heavy chain designs, 1% of these pairings were detected, typically at 2.08 and seldom below 0.84. The control count says in how many pairings with the empty strains this scFv gave a signal, with their mean in brackets.

CDR-H1,CDR-H2,CDR-H3,"log10 Kd, replicates","mean, log10 nM",empty controls
GFSLNSYGIS,VIYSDGRRTFYDDRVK,GREAGTFDS,0.07 -0.09 -0.06 -0.04 -0.06 0.11,-0.01,0/18
GFDLNSYGIS,VIYSDGRRTFYKDSVK,GKAAGTFDV,0.48 0.16 1.21 -0.51 0.67 0.00,0.33,1/18 (1.32)
GFELNSYGIS,VIYSDGRRTFYGDNVK,GRTAGTFDT,1.59 1.49 0.48 0.48 0.74 0.66,0.91,0/18
GFDLNSYGIS,VIYSDGRRTFYDDSVK,GQAAGTFDN,1.98 2.66 1.60 1.08 0.51 nd,1.57,0/18
GFTLNSYGIS,VIYSDGMRTFYTDDVK,GRTAGTFDS,0.30 0.26 0.62 -0.10 0.18 0.76,0.34,1/18 (1.99)
GFNLNSYGIS,VIYSDGRRTFYGDDVK,GQTAGTFDS,0.62 0.18 0.44 0.26 0.28 0.43,0.37,1/18 (4.52)
GFELNEYGIS,VIYSDGRRTMYGDSVK,GRNAGTFDS,nd -0.80 nd -0.45 -1.11 -1.86,-1.05,0/18
GFALNSYGIS,VIYSDGRRTFYGDSVK,GNEAGTFDS,2.32 nd nd nd 1.59 3.09,2.33,0/18
MFDLNTYGIS,VIYSDGRRTFYGDSVK,GEAAGTFDK,nd 2.49 nd nd 1.09 nd,1.79,0/18
GFTLNSYGIS,VIYSDGRRTFYGDSVK,GRVTGTFDT,nd nd nd nd nd nd,nd,0/18
GFGLNSYGIS,VIYSDGRRTFYQDSVK,GKTAGTFDS,1.59 1.37 1.29 0.90 2.53 1.31,1.50,0/18
GFTLNSYGIS,VIYSDGMRTFYSDSVK,GQTAGTFDS,0.43 -0.19 -0.38 -0.29 -0.34 0.10,-0.11,0/18
GFSLNDYGIS,VIYSDGRRTFYGDHVK,GRTAGTFDA,0.15 0.00 0.10 -0.20 0.21 0.16,0.07,1/18 (1.91)
GFNLNTYGIS,VIYSDGRRTFYGDSVK,GEAAGTFDT,0.56 1.00 1.16 2.17 0.40 0.85,1.02,0/18
YFNLNSYGIS,VIYSDGRRTFYGDSVK,GRTAGTFDS,0.08 0.53 0.67 -0.39 -0.27 1.55,0.36,0/18
GFDLNSYGIS,VIYSDGRRTFYGDRVK,GLTAGTFDS,0.42 0.56 0.03 0.58 0.32 0.15,0.34,1/18 (2.82)
GFELNMYGIS,VIYSDGRRTAYGDSVK,GRQAGTFDS,-0.19 -0.72 -0.28 0.21 -0.19 -0.01,-0.20,0/18
GFTLNSYGIS,VIYSDGKRTFYSDSVK,GQAAGTFDV,0.56 0.21 -0.02 -0.07 0.54 0.56,0.29,0/18
MFWLNEYGIS,VIYSDGRRTFYGDSVK,GQTAGTFDT,nd nd nd nd nd nd,nd,0/18
GFDLNSYGIS,VIYSDGRRTFYVDMVK,GKAAGTFDV,nd nd nd nd nd nd,nd,0/18
GFTLNSYGIS,VIYSDGKRTFYGDSVK,GRTAGTFDQ,0.98 0.59 1.82 1.43 1.76 1.49,1.34,0/18
GFTLNSYGIS,VIYSDGMRTFYSDQVK,GKTAGTFDS,nd nd nd nd nd nd,nd,0/18
GFTLNDYGIS,VIYSDGRRTFYGDAVK,GRTAGTFDA,-0.06 0.15 0.71 -0.51 0.35 0.45,0.18,0/18
KFSLNSYGIS,VIYSDGRRTFYSDSVK,GKNAGTFDS,nd nd nd nd nd nd,nd,0/18
GFTLNSYGIS,VIYSDGRRTFYADSVK,GQEAGTFDL,nd nd nd nd nd nd,nd,0/18
GFSLNSYGIS,VIYSDGRRTFYGDMVK,GEAAGTFDK,1.54 0.87 0.60 0.14 2.12 1.35,1.10,0/18
GFTLNSYGIS,VIYSDGLRTFYDDSVK,GRTAGTFDS,0.15 0.08 -0.16 -0.52 0.38 -0.04,-0.02,0/18
GFWLNDYGIS,VIYSDGRRTFYKDSVK,GRTAGTFDT,nd nd nd nd nd nd,nd,0/18
MFSLNEYGIS,VIYSDGRRTFYGDSVK,GQTAGTFDS,0.60 1.29 1.46 0.23 0.59 0.62,0.80,0/18
GFSLNSYGIS,VIYSDGRRTFYGDQVK,GKAAGTFDR,nd nd nd nd nd nd,nd,1/18 (1.44)
GFTLNSYGIS,VIYSDGKRTFYGDKVK,GQTAGTFDL,0.78 0.85 0.69 1.56 2.27 1.13,1.21,0/18
GFQLNEYGIS,VIYSDGRRTFYSDSVK,GRQAGTFDT,0.47 0.86 0.17 0.45 0.64 0.23,0.47,0/18
GFDLNSYGIS,VIYSDGRRTFYTDRVK,GQTAGTFDS,0.88 0.31 nd 1.67 1.12 0.82,0.96,0/18
GFELNSYGIS,VIYSDGRRTFYSDSVK,GQTAGTFDK,-0.21 0.29 -0.14 0.44 0.06 nd,0.09,0/18
GFKLNEYGIS,VIYSDGRRTFYADSVK,GRTAGTFDS,0.04 -0.47 -0.88 -0.26 -0.34 -0.82,-0.45,0/18
GFTLDSYGIS,VIYSDGRRTFYADSVK,GRVAGTFDK,0.06 0.38 0.10 0.59 0.38 0.26,0.29,0/18
GFELNSYGIS,VIYSDGRRTFYGDSVK,GNAAGTFDD,1.99 1.20 2.38 1.74 1.56 1.88,1.79,1/18 (2.32)
GFQLNSYGIS,VIYSDGRRTFYKDQVK,GRTAGTFDS,nd 1.07 1.37 1.52 1.60 nd,1.39,0/18
GFTLNSYGIS,VIYSDGRRTFYSDRVK,GQAAGTFDK,nd -0.24 0.83 0.86 1.25 0.45,0.63,0/18
HFSLNSYGIS,VIYSDGRRTFYSDSVK,GNAAGTFDS,nd 0.85 1.31 1.03 1.54 1.44,1.23,0/18
GFGLNSYGIS,VIYSDGRRTFYSDSVK,GKEAGTFDS,0.62 nd nd 0.30 -0.09 -0.73,0.02,1/18 (0.29)
GFELNTYGIS,VIYSDGRRTFYGDSVK,GQTAGTFDS,0.65 -0.03 0.20 -0.04 0.27 0.42,0.24,1/18 (2.11)
GFDLNSYGIS,VIYSDGRRTFYGDRVK,GKQAGTFDS,0.55 0.83 0.64 0.70 1.26 0.45,0.74,0/18
GKTLNSYGIS,VIYSDGRRTFYGDDVK,GQTAGTFDV,nd 1.10 1.88 nd nd 0.90,1.29,0/18
GFDLNSYGIS,VIYSDGRRTFYDDNVK,GRTAGTFDS,-0.26 -0.03 -0.26 -0.64 -0.44 -0.15,-0.30,0/18
GFTLDSYGIS,VIYSDGRRTFYGDSVK,GEAAGTFDK,nd 2.11 1.42 1.37 1.91 1.20,1.60,1/18 (1.86)
GFELNSYGIS,VIYSDGRRTFYGDQVK,GMTAGTFDS,0.94 0.70 0.47 0.68 0.76 1.15,0.78,0/18
GFKLNSYGIS,VIYSDGKRTFYGDSVK,GRQAGTFDS,nd nd nd nd nd nd,nd,0/18
GFDLNEYGIS,VIYSDGRRTFYGDRVK,GRTAGTFDS,0.68 0.21 1.17 1.67 -0.02 0.25,0.66,0/18
GFDLNSYGIS,VIYSDGRRTFYVDAVK,GRQAGTFDS,1.84 1.97 2.12 2.69 1.64 1.57,1.97,0/18
GFGLNSYGIS,VIYSDGRRTFYGDSVK,GKTAGTFDV,0.86 0.98 2.22 0.94 0.58 1.04,1.10,0/18

Repeated from above, the 3 best binders with a signal in all replicates:

CDR-H1,CDR-H2,CDR-H3,"log10 Kd, replicates","mean, log10 nM",empty controls
GFKLNEYGIS,VIYSDGRRTFYADSVK,GRTAGTFDS,0.04 -0.47 -0.88 -0.26 -0.34 -0.82,-0.45,0/18
GFDLNSYGIS,VIYSDGRRTFYDDNVK,GRTAGTFDS,-0.26 -0.03 -0.26 -0.64 -0.44 -0.15,-0.30,0/18
GFELNMYGIS,VIYSDGRRTAYGDSVK,GRQAGTFDS,-0.19 -0.72 -0.28 0.21 -0.19 -0.01,-0.20,0/18

Data: MIT Lincoln Laboratory AlphaSeq set, Li et al. 2023, doi:10.1038/s41467-023-39022-2, as distributed in FLAb.